Source: patent US20250375530A1 (ALMAC DISCOVERY, published 2025)
Values belong to the binder of their own block, whether it stands above or below them.

Chains of the proteins cited; added tags and fusions are not shown. A line that says so, or that is headed by a name, gives the form on record, which may keep a tag or linker.
human ROR1-Fc (CHO), one chain, as listed by the source limits assumed: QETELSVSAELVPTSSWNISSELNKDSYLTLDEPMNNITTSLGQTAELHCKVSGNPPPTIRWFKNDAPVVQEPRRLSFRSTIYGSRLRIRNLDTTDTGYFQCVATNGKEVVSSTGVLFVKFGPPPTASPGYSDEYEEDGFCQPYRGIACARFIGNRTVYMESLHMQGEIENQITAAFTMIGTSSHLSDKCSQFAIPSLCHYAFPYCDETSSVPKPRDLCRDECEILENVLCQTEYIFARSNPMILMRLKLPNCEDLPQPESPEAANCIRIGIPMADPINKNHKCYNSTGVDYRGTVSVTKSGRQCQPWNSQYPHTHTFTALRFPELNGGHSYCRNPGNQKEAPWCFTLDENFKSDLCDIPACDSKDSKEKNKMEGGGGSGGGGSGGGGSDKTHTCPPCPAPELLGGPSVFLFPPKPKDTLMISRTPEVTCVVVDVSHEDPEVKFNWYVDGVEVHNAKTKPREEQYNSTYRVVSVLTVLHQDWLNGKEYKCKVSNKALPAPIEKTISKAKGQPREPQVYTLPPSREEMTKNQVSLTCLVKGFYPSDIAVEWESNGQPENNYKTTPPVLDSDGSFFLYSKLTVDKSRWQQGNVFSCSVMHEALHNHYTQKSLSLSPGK

Assays:
human ROR1-Fc (CHO) [1] = biological target: T1, human ROR1-Fc (CHO) (human); assay: BLI, hROR1
T1 construct: also called hROR1-Fc; huROR1-Fc

human ROR1-Fc (CHO) [2] = biological target: T1, human ROR1-Fc (CHO); assay: BLI, hROR1-hFc immobilised

B3: P3A1G1AE3-G3CPG4 (linker PGVQPCPGGGGGS) (VNAR, not shown: small tags and cut ends)
chain: TRVDQSPSSLSASVGDRVTITCVLTGTRYGLYSTYWYRKNPGSSDEERISISGRYSESVNKGTKSFTLTISSLQPEDSATYYCRAREARHPWLRQWYDGAGTKVEIKPGVQPCPGGGGGSTRVDQSPSSLSASVGDRVTITCVLTDANYGLAATYWYRKNPGSSNKERISISGRYSESVNKGTMSFTLTISSLQPEDSATYYCRAYPWGAGAPYNVQWYDGAGTKVEIK
notes: Bi-paratopic fusion with Cys-containing linker
Kd (human ROR1-Fc (CHO) [1]): 0.24 nM

B4: P3A1G1AE3-G3CPG4 (linker PGVQPAPGGGGS) (VNAR, not shown: small tags and cut ends)
chain: TRVDQSPSSLSASVGDRVTITCVLTGTRYGLYSTYWYRKNPGSSDEERISISGRYSESVNKGTKSFTLTISSLQPEDSATYYCRAREARHPWLRQWYDGAGTKVEIKPGVQPAPGGGGSTRVDQSPSSLSASVGDRVTITCVLTDANYGLAATYWYRKNPGSSNKERISISGRYSESVNKGTMSFTLTISSLQPEDSATYYCRAYPWGAGAPYNVQWYDGAGTKVEIK
notes: Bi-paratopic VNAR-VNAR fusion
Kd (human ROR1-Fc (CHO) [2]): 0.58 nM

Continued, values first:

Kd (human ROR1-Fc (CHO) [1]): 0.28 nM
B1: G3CPG4-P3A1G1AE3 (linker PGVQPCPGGGGGS) (VNAR, not shown: small tags and cut ends)
chain: TRVDQSPSSLSASVGDRVTITCVLTDANYGLAATYWYRKNPGSSNKERISISGRYSESVNKGTMSFTLTISSLQPEDSATYYCRAYPWGAGAPYNVQWYDGAGTKVEIKPGVQPCPGGGGGSTRVDQSPSSLSASVGDRVTITCVLTGTRYGLYSTYWYRKNPGSSDEERISISGRYSESVNKGTKSFTLTISSLQPEDSATYYCRAREARHPWLRQWYDGAGTKVEIK
notes: as for B3

Kd (human ROR1-Fc (CHO) [2]): 0.53 nM
B2: G3CPG4-P3A1G1AE3 (linker PGVQPAPGGGGS) (VNAR, not shown: small tags and cut ends)
chain: TRVDQSPSSLSASVGDRVTITCVLTDANYGLAATYWYRKNPGSSNKERISISGRYSESVNKGTMSFTLTISSLQPEDSATYYCRAYPWGAGAPYNVQWYDGAGTKVEIKPGVQPAPGGGGSTRVDQSPSSLSASVGDRVTITCVLTGTRYGLYSTYWYRKNPGSSDEERISISGRYSESVNKGTKSFTLTISSLQPEDSATYYCRAREARHPWLRQWYDGAGTKVEIK
notes: Bi-paratopic VNAR-VNAR fusion
